# From article PMC9504029, “Identification and Characterization of Novel Small-Molecule SMOX Inhibitors” (Medical Sciences, 2022)
# The chains behind the UniProt entries cited, without tags or fusion partners.
# UniProt P27338, whole entry: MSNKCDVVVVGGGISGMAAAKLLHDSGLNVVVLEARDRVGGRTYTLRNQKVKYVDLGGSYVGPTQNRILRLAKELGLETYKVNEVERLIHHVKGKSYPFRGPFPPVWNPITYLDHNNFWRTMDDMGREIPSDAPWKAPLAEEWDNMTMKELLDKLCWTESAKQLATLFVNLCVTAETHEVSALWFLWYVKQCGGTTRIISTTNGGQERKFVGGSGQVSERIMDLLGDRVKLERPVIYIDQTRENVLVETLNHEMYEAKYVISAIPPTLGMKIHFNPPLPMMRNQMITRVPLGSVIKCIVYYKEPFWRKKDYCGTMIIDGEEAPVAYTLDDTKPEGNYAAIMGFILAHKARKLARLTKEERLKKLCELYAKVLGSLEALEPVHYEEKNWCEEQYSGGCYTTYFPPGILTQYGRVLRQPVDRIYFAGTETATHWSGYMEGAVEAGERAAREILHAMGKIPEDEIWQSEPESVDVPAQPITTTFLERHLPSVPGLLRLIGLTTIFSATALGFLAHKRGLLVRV
# Target: T1, recombinant human MAO-B (Homo sapiens, UniProt P27338)
# T1 construct: purchased Sigma-Aldrich M7441-1VL
# Assay: MAO-Glo assay, MAO-B
# Type: biochemical
# Protocol: To determine selectivity, the compounds were tested for activity against the related FAD-dependent amine oxidase enzymes LSD1, MAO-A, and MAO-B. LSD1 activity was assessed using a commercially available assay kit (#700120, Cayman Chemical, Ann Arbor, MI, USA), in which the enzyme activity was determined by the horseradish peroxidase-catalyzed oxidation of 10-acetyl-3,7-dihydroxyphenoxazine to the highly fluorescent resorufin in response to H2O2 production. Monoamine oxidase activity was determined using recombinant human MAO-A and MAO-B (M7316-1VL & M7441-1VL, Sigma-Aldrich, St. Louis, MO, USA) and a commercially available assay kit (#V1401, MAO-Glo, Promega, Madison, WI, USA), which utilizes the MAO-catalyzed oxidation of a luciferin derivative coupled with esterase activity to produce luminescence. Fluorescent and luminescent readout was obtained using a SpectraMax M5 plate reader (Molecular Devices) equipped with SOFTmax PRO 7.0.3 software. […] Values were reported as mean % inhibition ± SD of triplicate assay wells normalized to background activity and compared to the vehicle control.
smiles,measurement,value
"N[C@@H]1C[C@H]1c1ccccc1 (racemic) [TCP, Tranylcypromine, reference compound]","% Inhibition at 20 μM ± SD, MAO-B",88.2 ± 7.9%
